Measurements from US8076367B2, “Benzimidazolylidene propane-1,3-dione derivative or salt thereof” (Astellas Pharma Inc., priority 2004, dated 2011).

The chains behind the UniProt entries cited, without tags or fusion partners.
UniProt P08684, whole entry: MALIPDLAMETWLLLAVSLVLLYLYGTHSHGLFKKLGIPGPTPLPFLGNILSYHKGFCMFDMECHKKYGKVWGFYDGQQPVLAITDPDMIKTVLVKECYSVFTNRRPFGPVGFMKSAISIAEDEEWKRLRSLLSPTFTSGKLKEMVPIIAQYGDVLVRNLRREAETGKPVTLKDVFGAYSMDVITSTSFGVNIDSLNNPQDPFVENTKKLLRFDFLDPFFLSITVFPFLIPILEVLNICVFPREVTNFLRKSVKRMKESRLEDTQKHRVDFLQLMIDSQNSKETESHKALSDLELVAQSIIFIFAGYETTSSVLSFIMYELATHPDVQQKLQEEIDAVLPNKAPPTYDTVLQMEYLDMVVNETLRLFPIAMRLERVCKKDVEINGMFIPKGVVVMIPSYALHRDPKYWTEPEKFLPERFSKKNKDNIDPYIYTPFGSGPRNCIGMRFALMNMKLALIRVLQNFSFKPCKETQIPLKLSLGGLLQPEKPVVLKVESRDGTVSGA
UniProt P30968, whole entry: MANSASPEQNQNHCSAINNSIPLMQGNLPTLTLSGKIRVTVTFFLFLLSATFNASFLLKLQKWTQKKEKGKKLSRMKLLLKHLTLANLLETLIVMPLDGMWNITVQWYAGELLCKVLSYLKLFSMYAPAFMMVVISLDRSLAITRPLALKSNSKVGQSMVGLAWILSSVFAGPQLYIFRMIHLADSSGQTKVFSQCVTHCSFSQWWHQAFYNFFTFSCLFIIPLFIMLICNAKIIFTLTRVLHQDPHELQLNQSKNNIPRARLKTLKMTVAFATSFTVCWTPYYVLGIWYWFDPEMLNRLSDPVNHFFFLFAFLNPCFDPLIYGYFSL

Columns and labels:
Cytochrome P450 (CYP3A4) = Cytochrome P450 (CYP3A4) (Homo sapiens, UniProt P08684); conditions: human liver microsome 0.1 mg protein/ml, substrate midazolam, 37° C. 20 minutes
[1] = Measurement of blood concentration of a compound by ex vivo binding assay; conditions: Wistar male rat, oral 10 mg/kg in 0.5% MC, serum 2 hours after administration
Method: Each compound to be tested was dissolved or suspended in 0.5% methyl cellulose (MC) solution and was orally administered to Wistar male rat of 9 weeks of age (SLC Japan) at a dose of 10 mg/kg. Blood sample was collected after 2 hours of the administration to obtain serum.
Each serum sample was mixed with the same volume of methanol to remove protein and optionally diluted with an assay buffer, and then the ^125I-D-Trp^6-LHRH binding inhibition ratio was measured in the same manner as in Test Example 1. Using a separately prepared calibration curve on the concentration-binding inhibition of compounds to be tested, blood concentration of each compound (μM) was calculated from the binding inhibition ratio.

human GnRH receptor = human GnRH receptor (Homo sapiens, UniProt P30968); assay: Test on GnRH receptor antagonism (125I-D-Trp6-LHRH binding inhibition); conditions: read-out: GnRH receptor antagonism (A) IC50, inhibition of 125I-D-Trp6-LHRH binding to human GnRH receptor
Method: GnRH receptor antagonism of the compounds of the invention was evaluated by calculating their concentration for inhibiting 50% of the binding of ^125I-D-Trp^6-LHRH to human GnRH receptor (IC50 value), in accordance with the 1. GnRH receptor antagonism test method described on p. 56 of the Patent Reference 1.

| SMILES | CYP3A4 Inhibitory activity I (Cytochrome P450 (CYP3A4)) [%] | Blood compound concentration (B) 2 hour value [1] [nM] | IC50 (human GnRH receptor) [pM] | CYP3A4 Inhibitory activity I (Cytochrome P450 (CYP3A4); tested form: HCl) [%] | Blood compound concentration (B) 2 hour value ([1]; tested form: HCl) [nM] | IC50 (human GnRH receptor; tested form: HCl) [pM] |
| --- | --- | --- | --- | --- | --- | --- |
| O=C(C(C(=O)c1cc(F)cc(F)c1)=C1Nc2ccc(NCc3cccnc3)cc2N1)c1ccccc1 | 58 | 40 | 190 |  |  |  |
| CC(=O)Nc1ccc(CNc2ccc3c(c2)NC(=C(C(=O)c2cccc(C)c2)C(=O)c2cc(F)cc(F)c2)N3)cc1 | 53 | 1290 | 970 |  |  |  |
| Nc1cccc(C(=O)C(C(=O)c2cc(F)cc(F)c2)=C2Nc3ccccc3N2)c1 |  |  |  | 40 | 1490 | 950 |

Where two headings read alike, the source gives them in different places.
